Sa growth inh – inhibitors of Staphylococcus aureus growth at 42 °C | relative growth, % (test concentration not listed) | actives 0.53% (n = 170,000) | S. aureus RN4220 growth, OD600, 20 h; active compounds read low;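 active = relative growth at most 50% at the other temperature and 20+ points below 30 °C, or under 10% at both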
GIV Gai3 FP – GIV-Galpha-i interaction inhibition; P08753; Galpha-i3/FITC-GIV peptide fluorescence polarization, 90 min; active compounds read low; scaled: aluminum fluoride 0%, vehicle 100%; percent of control (FP), % (no concentration beside the values); 210,000 compounds, 0.42% hits; AID 1224905;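 active means replicate mean at 85% of control or lower, very high polarization wells dropped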;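 further: wells of about 15 µL received 100 nL stock; the first replicate is given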
HCMV UL50-53 inh – disrupts HCMV UL50-UL53 complex binding; inhibition, % (concentration not given with the values); HTRF UL50-UL53 interaction, normalized percent inhibition; actives 0.15% (n = 190,000); in the data active = inhibition above about 27%, passing the limit was not always enough
GIV Gai FP conf – confirmation of inhibitors of GIV binding to rat Galpha-i3; shares compounds with GIV Gai3 FP; fluorescence polarization, mP at 100 µM; FITC-GIV peptide binding to Galphai3, fluorescence polarization; active compounds read low; AID 1259350; actives 38% (n = 580);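 active = inhibition score of 15 or more, meaning 100 minus mean polarization as percent of control over three replicates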;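 note: lower mP means peptide displaced from Galphai3 so more inhibition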
GIV-Gai AS conf – confirmation of inhibitors of GIV binding to human Galpha-i3. AID 1259351. AlphaScreen Galphai3-GIV binding, purified proteins, 90 min; active compounds read low. AlphaScreen counts at 100 µM. shares compounds with GIV Gai3 FP. actives 39% (n = 580);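 active = inhibition score at or above a set limit, where the score is 100 minus the three-replicate mean percent of control signal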
The depositor's hits bear a star; ! = a repeat was not active. Sampled rows, rich in hits. Any-hit rate of the full collection: about 0.7%.

Screening CC(CC(=O)OCc1ccccc1)n1ccnc1 (stereo not drawn) returned Sa growth inh 117 and HCMV UL50-53 inh -14.
`CCOc1ccc2c(c1)c1nnc(-c3ccccc3)c-1cn2Cc1ccccc1` gave GIV Gai3 FP 71*, HCMV UL50-53 inh -34, GIV Gai FP conf 64 and GIV-Gai AS conf 45947.
Screening c1ccc(Cn2cc3c(-c4ccccc4)nnc-3c3ccccc32)cc1 returned Sa growth inh 92, GIV Gai3 FP 110 and HCMV UL50-53 inh -60.
For CC1=C(C#N)C(=O)N(C)C(=O)/C1=C/c1ccc(-c2cccc(Cl)c2C)o1 the results were Sa growth inh 63, GIV Gai3 FP 106 and HCMV UL50-53 inh -52.
`CC1=C(C#N)C(=O)N(CCc2ccccc2)C(=O)/C1=C\c1ccc(-c2cccc(Cl)c2)o1` gave Sa growth inh 92, GIV Gai3 FP 101 and HCMV UL50-53 inh -20.
For C=CCN1C(=O)C(C#N)=C(C)/C(=C\c2ccc(-c3cccc(C(=O)O)c3)o2)C1=O the results were Sa growth inh 69, GIV Gai3 FP 83*, HCMV UL50-53 inh -6, GIV Gai FP conf 79 and GIV-Gai AS conf 2591*.
Screening CC1=C(C#N)C(=O)N(C)C(=O)/C1=C/c1ccc(-c2ccccc2C(=O)O)o1 returned Sa growth inh 84, GIV Gai3 FP 84*, HCMV UL50-53 inh -28, GIV Gai FP conf 68 and GIV-Gai AS conf 2072*.
For NC(=O)c1ccccc1NC(=O)CSc1ncc(-c2ccc(Cl)cc2)o1 the results were GIV Gai3 FP 107 and HCMV UL50-53 inh -26.
CC1CCC(NS(=O)(=O)c2ccc(-c3cnc(C4CCC4)o3)s2)CC1 (stereo not drawn) was read as GIV Gai3 FP 110.
O=C1C=C(O)c2cccc3cccc1c23 was read as Sa growth inh 56, GIV Gai3 FP 83*, HCMV UL50-53 inh -115, GIV Gai FP conf 59 and GIV-Gai AS conf 15097*.
For O=C1NC(=O)c2cccc3cccc1c23 the results were Sa growth inh 91, GIV Gai3 FP 105 and HCMV UL50-53 inh -92.
O=C(Cn1cnc2onc(-c3ccc(Cl)cc3)c2c1=O)NC1CCCCC1 was read as GIV Gai3 FP 98 and HCMV UL50-53 inh -18.
For O=C1NC(Cc2ccccc2)(Cc2ccccc2)C(=O)N1Cc1nnc(-c2cccs2)o1 the results were Sa growth inh 103 and HCMV UL50-53 inh -30.
COC(=O)c1c(-c2ccc(Cl)cc2)noc1N1CCN(c2ccccc2F)CC1 was read as Sa growth inh 87, GIV Gai3 FP 71*!, HCMV UL50-53 inh -2, GIV Gai FP conf 64 and GIV-Gai AS conf 42746.
Screening COC(=O)c1c(-c2ccc(Cl)cc2)noc1N1CCN(C)CC1 returned GIV Gai3 FP 99 and HCMV UL50-53 inh -27.
For O=C(Nc1cccc2cccnc12)C1CC(=O)N(C2CCCC2)C1 (stereo not drawn) the results were Sa growth inh 112 and HCMV UL50-53 inh -32.
Screening On1c2c(c3c4nonc4ccc31)CCCC2 returned Sa growth inh 1, GIV Gai3 FP 50*, HCMV UL50-53 inh 56, GIV Gai FP conf 42* and GIV-Gai AS conf 10129*.
COn1c2c(c3c4nonc4ccc31)CCCC2 was read as Sa growth inh 93, GIV Gai3 FP 102 and HCMV UL50-53 inh -2.
CCOC(=O)c1ccc(-n2c(C)cc(C=C3C(=O)NC(=S)NC3=O)c2C)cc1 was read as Sa growth inh 101, GIV Gai3 FP 78*, GIV Gai FP conf 64 and GIV-Gai AS conf 10801*.
For CCOC(=O)c1ccc(-n2c(C)cc(C=C3C(=O)N(C)C(=S)N(C)C3=O)c2C)cc1 the results were GIV Gai3 FP 113 and HCMV UL50-53 inh -5.
`CCCSc1nnc(Nc2ccccc2F)s1` gave Sa growth inh 93 and HCMV UL50-53 inh -9.
Cc1cc(OCc2nc(CC(=O)NCC(C)C)cs2)ccc1Cl was read as GIV Gai3 FP 96, HCMV UL50-53 inh -19, GIV Gai FP conf 69 and GIV-Gai AS conf 41855.
Cc1cc(OCc2nc(CC(=O)NC3CC3)cs2)ccc1Cl was read as GIV Gai3 FP 123 and HCMV UL50-53 inh -13.
Cc1ccc2oc(=O)c3cc(C(=O)N4CC=C(c5ccccc5)CC4)sc3c2c1 was read as GIV Gai3 FP 101 and HCMV UL50-53 inh -12.
Screening Cn1cc(/C=C/c2nc3ccccc3c(=O)n2-c2ccc([N+](=O)[O-])cc2)c2ccccc21 returned GIV Gai3 FP 102 and HCMV UL50-53 inh -20.
`Cc1ccc(-n2c(/C=C/c3c(C)n(C)c4ccccc34)nc3ccccc3c2=O)cc1` gave Sa growth inh 103, GIV Gai3 FP 88, HCMV UL50-53 inh -24, GIV Gai FP conf 76 and GIV-Gai AS conf 36423.
For CC1=NN(c2cccc(Br)c2)C(=O)/C1=C\c1ccc(-c2cccc([N+](=O)[O-])c2)o1 the results were GIV Gai3 FP 100 and HCMV UL50-53 inh -19.
`O=C1OC(c2ccccc2)OC(=O)C1=Cc1ccc(-c2cccc(Br)c2)o1` (stereo not drawn) gave Sa growth inh 96, GIV Gai3 FP 64*, GIV Gai FP conf 63 and GIV-Gai AS conf 17821*.
Screening CCN1CCN(S(=O)(=O)c2ccc(Oc3ccccc3)cc2)CC1 returned HCMV UL50-53 inh 0.
For O=C(O)C(=Cc1ccc(-c2cccc(C(F)(F)F)c2)o1)C(=O)O the results were Sa growth inh 80, GIV Gai3 FP 84*, HCMV UL50-53 inh -16, GIV Gai FP conf 67 and GIV-Gai AS conf 15696*.

The last four entries of the part before are carried over, then new ones follow:
For CC1=NN(c2cccc(Br)c2)C(=O)/C1=C\c1ccc(-c2cccc([N+](=O)[O-])c2)o1 the results were GIV Gai3 FP 100 and HCMV UL50-53 inh -19.
`O=C1OC(c2ccccc2)OC(=O)C1=Cc1ccc(-c2cccc(Br)c2)o1` (stereo not drawn) gave Sa growth inh 96, GIV Gai3 FP 64*, GIV Gai FP conf 63 and GIV-Gai AS conf 17821*.
Screening CCN1CCN(S(=O)(=O)c2ccc(Oc3ccccc3)cc2)CC1 returned HCMV UL50-53 inh 0.
For O=C(O)C(=Cc1ccc(-c2cccc(C(F)(F)F)c2)o1)C(=O)O the results were Sa growth inh 80, GIV Gai3 FP 84*, HCMV UL50-53 inh -16, GIV Gai FP conf 67 and GIV-Gai AS conf 15696*.
N#C/C(=C/c1ccc(-c2cccc(C(F)(F)F)c2)o1)c1ccc(C(=O)O)cc1 was read as Sa growth inh 121, GIV Gai3 FP 111 and HCMV UL50-53 inh -52.
`CC1(C)CC2(CCCN(C(=S)Nc3ccccc3)C2)CCO1` (stereo not drawn) gave Sa growth inh 118, GIV Gai3 FP 90, GIV Gai FP conf 68 and GIV-Gai AS conf 33599.
For CC1(C)CC2(CCCN(CCC(O)(c3ccccc3)c3ccccc3)C2)CCO1 (stereo not drawn) the results were Sa growth inh 115 and HCMV UL50-53 inh -2.
For COC(=O)c1ccc(NC(=O)c2nn(C)c3c2CS(=O)(=O)c2ccccc2-3)cc1 the results were Sa growth inh 113, GIV Gai3 FP 86, HCMV UL50-53 inh -16, GIV Gai FP conf 83 and GIV-Gai AS conf 37898.
`Cn1nc(C(=O)Nc2ccc(F)cc2)c2c1-c1ccccc1S(=O)(=O)C2` gave GIV Gai3 FP 104 and HCMV UL50-53 inh 0.
CCOC(=O)c1cc2c(=O)n3ccccc3nc2n(C2CCCCC2)c1=N was read as Sa growth inh 99, GIV Gai3 FP 107 and HCMV UL50-53 inh -35.
Screening N=c1c(C(N)=O)cc2c(=O)n3ccccc3nc2n1C1CCCC1 returned Sa growth inh 96, GIV Gai3 FP 90, HCMV UL50-53 inh -125, GIV Gai FP conf 70 and GIV-Gai AS conf 36264.
For COc1cccc(N2C(=O)/C(=C/c3ccc(OC)c(OC)c3OC)C(=O)NC2=S)c1 the results were GIV Gai3 FP 108 and HCMV UL50-53 inh -18.

Compound activity (PubChem)
